## scFv variants of Ab-14 (heavy chain) against a SARS-CoV-2 spike peptide

Data: MIT Lincoln Laboratory AlphaSeq set, Li et al. 2023, doi:10.1038/s41467-023-39022-2, as distributed in FLAb.

Antigen: PDVDLGDISGINAS, a 14-residue peptide of the SARS-CoV-2 spike HR2 region.

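Phage display of a naive human antibody library on the peptide gave the parent. The variants were designed computationally from a first round of random CDR variants and then made and measured. Group labels follow the data file (Ctrl: baseline library sampled from a position-specific scoring matrix, with some repeated check sequences; Rand: our label for a block that the file lists under HC and that is probably the random mutants of the ten best first-round binders; En: ensemble of fine-tuned language models; GP: Gaussian process model; GPLM: also part of the Gaussian process libraries; HC: hill climbing; Gen: genetic algorithm; Gibbs: Gibbs sampling; a sequence that several methods proposed may carry one label only). In AlphaSeq, yeast of one mating type display the scFv and yeast of the other type display the target. After mating in shaken culture at 30 °C for 16 h, diploids were selected and their barcode pairs sequenced. The ratio of observed to expected reads was calibrated, replicate by replicate, on BCL2-family standards whose Kd was known from biolayer interferometry. Mating was done six times.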

The variants keep the light chain, the linker and the frameworks of Ab-14 (scFv order VH, a (GGGGS)3 linker, VL).
VH: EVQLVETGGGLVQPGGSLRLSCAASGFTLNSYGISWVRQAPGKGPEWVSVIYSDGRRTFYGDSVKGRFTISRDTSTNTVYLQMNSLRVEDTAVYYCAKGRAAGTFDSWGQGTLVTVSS
VL: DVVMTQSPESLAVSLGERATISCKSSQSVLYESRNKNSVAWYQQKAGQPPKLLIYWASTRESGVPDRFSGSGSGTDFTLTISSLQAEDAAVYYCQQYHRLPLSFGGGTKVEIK

The parent's heavy chain CDRs are GFTLNSYGIS, VIYSDGRRTFYGDSVK, GRAAGTFDS; each variant's own CDRs replace them letter for letter. Affinities are written as log10 Kd with Kd in nM; a lower number is a better binder. A mean of the replicates is given; it leaves out those without a signal. A pair that was not seen in any replicate is written "nd"; this usually means weak binding, but a binder can also be missed.

| CDR-H1 | CDR-H2 | CDR-H3 | group | mean, log10 nM | replicates with signal |
|---|---|---|---|---|---|
| GFTLNEYGIS | VIYSDGRRTFYTDSVK | GVEAGTFDS | GP_HC | -0.06 | 6 of 6 |
| GFDLNEYGIS | VIYADGVRTAYIDSVK | GNVAGTFDM | En_Gen | -0.54 | 6 of 6 |
| GFELNSYGIS | VIYSDGRRTFYGDSVK | GRTAGTFDL | GP_Gen | 0.79 | 6 of 6 |
| GFNLDEYGIS | VIYADGYRRAYAQEVK | GMNSGFGGT | En_Gibbs | nd | 0 of 6 |
| GYTLNSYGIS | VIYSDGRRTFYSDSMK | CRAGGTFDS | Rand | nd | 0 of 6 |
| SFDLNSYGIS | VIYSDGRRTFYGDSVK | GKIAGTFDS | GP_Gibbs | 0.73 | 6 of 6 |
| GFSLNSYGIS | VIYSDGRRTFYGDRVK | GNAAGTFDS | GP_Gibbs | 0.91 | 6 of 6 |
| GFTLNEYGIS | VIYSDGRRTFYGDAVK | GRFAGTFDS | GPLM_HC | 1.07 | 6 of 6 |
| GFDLKSYGIS | VIYADGRRTFYGDSVK | CRARGTFDS | Ctrl | nd | 0 of 6 |
| GFTLKEYGIS | VIYSDGRRTFYGDSVK | GRAAVTFDK | GP_HC | nd | 0 of 6 |
| GFSLNSYGIS | VIYSDGRRTFYADDVK | GNAAGTFDT | GP_Gibbs | 0.43 | 6 of 6 |
| GFTLNNYGIS | VIYSDGRRTFYDDSVK | GQEAGTFDS | GP_HC | 1.04 | 4 of 6 |
| GFDLNEYGIS | VIYADGRRTFYADSVK | GQLAGTFDI | En_HC | -0.10 | 6 of 6 |
| GFELNSYGIS | VIYSDGRRTFYIDSVK | GQTAGTFDS | GPLM_Gibbs | 0.90 | 6 of 6 |
| GFTLNSYGIS | VIYSDGRRTFYGSSVK | GRAGGTFDS | Rand | nd | 0 of 6 |
| GFELNEYGIS | VIYSDGRRTFYTDRVK | GEAAGTFDS | GP_HC | 1.26 | 4 of 6 |
| GFDLNEYGIS | VIYADGKRTFYTDSVK | GEVAGTFDQ | En_HC | 0.00 | 6 of 6 |
| GFGLDEYGIS | VIYADGNRQMYTDSVK | GNNLMLVSV | En_Gibbs | nd | 0 of 6 |
| GFTLNSYGIS | VIYSDGQRTFYSDSYK | GRAAGTFDS | Ctrl | nd | 0 of 6 |
| GFHLNSYGIS | VIYSDGRRTFYADSVK | GREAGTFDS | GPLM_Gibbs | 0.04 | 6 of 6 |
| GFTLNEYGIS | VIYSDGRRTEYSDSVK | GRAAGTFDS | GP_HC | 1.28 | 6 of 6 |
| GFDLNEYGIS | VIYADGMRVRYANNFK | GYLDKTGMV | En_Gibbs | nd | 0 of 6 |
| GFSLNSYGIS | VIYSDGRRTFYIDSVK | GRQAGTFDS | GPLM_Gen | 1.78 | 5 of 6 |
| GFDLNEYGIS | VIYADGQRTAYADSVK | GKAAGTFDE | En_HC | 0.12 | 6 of 6 |
| GFTLRSYGIS | VIYSDGRRTHYGDSVK | GRAAGTFDS | Ctrl | nd | 0 of 6 |
| GFTLNDYGIS | VIYSDGRRTFYIDSVK | GRAAGTFWS | GPLM_HC | nd | 0 of 6 |
| GQTLNSYGIS | VIYSDGRRTFYQDSVK | GRAAGTFDS | Ctrl | 2.19 | 4 of 6 |
| GKTLDEYGIS | VIYADGMRTQYIDQVK | GGIDGWNMT | En_Gibbs | nd | 0 of 6 |
| GFSLNSYGIS | VIYSDGRRTAYSDSVK | GRAAGTFDS | GPLM_Gen | -0.33 | 6 of 6 |
| GFTLNSYGIS | VIYSDGRRTFYGDSVR | GRAAGTFDW | Ctrl | nd | 0 of 6 |
| GFELNSYGIS | VIYSDGRRTFYIDSVK | GVAAGTFDS | GP_Gen | 1.45 | 6 of 6 |
| GFTLNSYGIS | VIYSDGRRVFYGDSVK | GRAAGTFDS | Ctrl | 2.44 | 2 of 6 |
| GESLEEYGIS | VIYADGIREQYVDSVK | GRQGGFFVV | En_Gibbs | nd | 0 of 6 |
| GFDLNEYGIS | VIYADGMRTVYADSVK | GTNAGTFDI | En_Gen | -0.38 | 6 of 6 |
| GFDLEEMGIS | VIYADGARTVYTNSVK | GSFGDQMNV | En_Gibbs | nd | 0 of 6 |
| GFSLNSYGIS | VIYSDGRRTFYADDVK | GQTAGTFDS | GPLM_Gen | -0.23 | 6 of 6 |
| GFSLNSYGIS | VIYSDGRRTFYADSVK | GRLAGTFDN | GPLM_Gibbs | 0.02 | 6 of 6 |
| GFDLDEYGIS | VIYADGMRTAYADNVK | GEVAGTFDT | En_Gen | -0.36 | 6 of 6 |
| GFTLNSYGIS | VIYSDGRRTFYGDSVD | DRAAGFFDQ | Ctrl | nd | 0 of 6 |
| GFELNSYGIS | VIYSDGRRTFYIDSVK | GRHAGTFDS | GPLM_Gibbs | 0.86 | 1 of 6 |
| GENLSEYGIS | VIYADGKKTAYSNAVK | GANGGIFVV | En_Gibbs | nd | 0 of 6 |
| GFQLNSYGIS | VIYSDGRRTFYSDSVK | GWAAGTFDS | GPLM_HC | nd | 0 of 6 |
| GFDLNEYGIS | VIYADGRRTAYIDSVK | GNIAGTFDV | En_HC | -0.78 | 6 of 6 |
| GFTLNSYGIS | VIYSDGRRTFYDDSVK | GQLAGTFDN | GPLM_HC | 0.85 | 6 of 6 |
| GFDLDEYGIS | VIYADGMRTAYSDDVK | GENAGTFDI | En_Gen | -0.73 | 5 of 6 |
| GFTLNSYGIS | VIYSDGMRTFYADSVK | GRTAGTFWS | GP_Gibbs | nd | 0 of 6 |
| GFDLDEYGIS | VIYADGQRTAYSDSVK | GNEAGTFDV | En_Gen | -0.46 | 6 of 6 |
| GFDLNEYGIS | VIYADGQRTAYSDSVK | GNQAGTFDM | En_Gen | -0.29 | 6 of 6 |
| GFELNSYGIS | VIYSDGWRTFYTDSVK | GRTAGTFDS | GP_Gibbs | 0.86 | 6 of 6 |
| GFSLNSYGIS | VIYADGRRTFYGDNVK | GQAAGTFDS | GP_Gen | -0.58 | 6 of 6 |
| GFTLNSYGIS | VIYSDGRRTFYGDSFK | GRAAGTFDS | Ctrl | 2.80 | 4 of 6 |
| GFSLNSYGIS | VIYSDGRRTFYTDRVK | GREAGTFDS | GP_Gibbs | 0.36 | 6 of 6 |
| GFSLNSYGIS | VIYSDGQRTFYVDSVK | GRTAGTFDS | GPLM_Gen | 0.93 | 5 of 6 |
| GFDLNQYGIS | VIYSDGRRTFYSDSVK | GRAAGTFDS | GP_HC | -0.16 | 6 of 6 |
| GFDLNEYGIS | VIYADGIRTAYADSVK | GGNAGTFDV | En_Gen | -0.46 | 6 of 6 |
| GFTLNEYGIS | VIYSDGRRTFYGDSVK | GRTAGTFES | GPLM_Gen | 0.53 | 6 of 6 |
| GFELNSYGIS | VIYADGRRTFYGDSVK | GFAAGTFDS | GPLM_Gen | 0.10 | 6 of 6 |
| GFSFDEYGIS | VIYADGKRSFYADTVK | GNKDMTFDI | En_Gibbs | nd | 0 of 6 |
| GFDLNCYGIS | VIYSDGRRTFYGDSVK | GQTAGTFDS | GP_Gibbs | 0.82 | 1 of 6 |
| GFDLNSYGIS | VIYSDGRRTFYGDSVK | GRHAGTFES | GP_HC | 2.46 | 5 of 6 |
| GFTLNSYGIS | VIYSDGRRTFYGDSVK | GEAAGTFDM | Ctrl | 0.93 | 5 of 6 |
| GFDLNEYGIS | VIYADGRRTAYQDSVK | GEIAGTFDQ | En_HC | -0.28 | 6 of 6 |
| GFDINEYGVS | VIYADGMRSYYQDKVK | GSLGALFDV | En_Gibbs | nd | 0 of 6 |
| GFSLNDYGIS | VIYSDGRRTFYCDEVK | GRTAGTFDS | GPLM_Gibbs | 0.52 | 6 of 6 |
| GFTLNSYGIQ | VIYSDGRRTFYIDSVK | GQAAGTFDS | Ctrl | nd | 0 of 6 |
| GFTLNSYGIS | VIYSDGVRTFYHDQVK | GRAIGTFDS | Ctrl | nd | 0 of 6 |

Background: pairings of all heavy chain designs with three empty control strains gave a value in 1% of cases (median 2.08, 5th percentile 0.84). Values in that range, when seen in few replicates, are hard to tell from nonspecific mating. The range of this assay differs from that of the first round, and the authors advise against merging the two. In the paper, a design with two or fewer of six values counts as a poor binder.